According to patent US6884809B2 (Cornell Research Foundation, Inc., priority 2001, dated 2005):

Tested on: Na+/H+ exchanger (NHE)
Assay: NHE activity: Na+-dependent pHi recovery after NH4Cl acid pulse in BCECF-loaded SKNMC-H3 cells
Format: cell-based, human
Conditions: imetit 100 nM, n=277 cells, control 0.074

N=C(N)SCCc1c[nH]cn1 [imetit, Imetit]
mean rate of Na+-dependent pHi recovery (NHE activity): 0.048±0.002 pHi units/min
